Results as given in PubChem BioAssay AID2036 (NMMLSC, 2009).

Molecular target: Ras-related protein Rab7, wildtype (dog)
Assay: Rab7 GTP binding inhibitors, further analogs, SAR follow-up, biochemical, additional analogs, wildtype, multiplex bead flow cytometry (AID 2036)
Settings: measured here: Ki from EC50

Ki: 0.09 µM
Compound: COc1ccc2cc([C@@H](C)C(=O)O)ccc2c1
